Values of other authors in patent publication US7144890B2, “Spiro-pentacyclic compounds” (Hoffman-La Roche Inc., priority 2004, dated 2006).

By UniProt entry, the sequences of proteins in these tests, tags left out.
UniProt P47746, whole entry: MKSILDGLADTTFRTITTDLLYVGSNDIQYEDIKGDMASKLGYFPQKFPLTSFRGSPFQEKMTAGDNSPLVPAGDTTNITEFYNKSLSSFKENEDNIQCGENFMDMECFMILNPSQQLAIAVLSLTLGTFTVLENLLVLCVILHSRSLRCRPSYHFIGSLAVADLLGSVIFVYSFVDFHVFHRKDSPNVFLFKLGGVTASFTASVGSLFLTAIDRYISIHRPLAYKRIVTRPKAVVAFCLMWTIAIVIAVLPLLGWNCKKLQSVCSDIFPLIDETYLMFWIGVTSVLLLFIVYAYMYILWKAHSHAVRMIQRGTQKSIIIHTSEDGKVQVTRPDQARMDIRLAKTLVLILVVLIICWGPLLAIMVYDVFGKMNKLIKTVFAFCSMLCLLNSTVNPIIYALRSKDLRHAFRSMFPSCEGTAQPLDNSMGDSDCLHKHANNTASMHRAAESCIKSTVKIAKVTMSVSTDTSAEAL

Target: CB1 receptor (Mus musculus, UniProt P47746)
Settings: wild-type versus CB1 receptor knockout mice, after temporary food restriction; cited from earlier work

Q: For `Cc1c(C(=O)NN2CCCCC2)nn(-c2ccc(Cl)cc2Cl)c1-c1ccc(Cl)cc1` [SR 141716], which food intake is on record?
A: reduces food intake in wild-type but not knockout mice
